In patent US11471446B2, “Compounds for treatment of hypoproliferative disorders” (LU LICENSE AB, priority 2015, dated 2022):
pEC50: −log10 of the molar value.

System: RPS19-deficient murine erythroid progenitor cells
Assay: Phenotypic assay for rescued cell proliferation of murine RPS19-deficient erythroid progenitor cells
Type: cell-based
Settings: Mus musculus, proliferation rescue of RPS19-deficient erythroid progenitor cells
Excerpt: Correction of reduced proliferative capacity of RPS19-deficient erythroid progenitors was used as readout in a phenotypic screen for novel drug candidates.

CN1CCN(C(=O)c2ccc3cc(CCNc4ncnc5ccc(C#N)cc45)ccc3c2)CC1 [DBA-9]
pEC50: 7.30
